In article PMC8480901 (PLoS ONE, 2021):
Where “and” joins values, the source holds several entries; their conditions need not be identical. Equal values may be shown once.

Tested on: J774.2 mouse macrophages
Experiment: LPS-induced cytokine and chemokine levels in J774.2 mouse macrophage cell supernatant (ELISA)
Type: cell-based
Details: J774.2 supernatant; for IL-1β / IL-6: individual replicate

Which results are given for `C[C@@H]1C[C@H]2[C@@H]3CCC4=CC(=O)C=C[C@]4(C)[C@@]3(F)[C@@H](O)C[C@]2(C)[C@@]1(O)C(=O)CO` [Dexamethasone]?
IL-1β Mean (0.0003 µM): 251 pg/mL; IL-6 Mean (0.0003 µM): 86333 pg/mL; IL-1β (0.0003 µM): 243.798 pg/mL and 258.859 pg/mL; IL-6 (0.0003 µM): 89162 pg/mL and 83503 pg/mL; IL-1β Mean (0.001 µM): 209 pg/mL; IL-6 Mean (0.001 µM): 75753 pg/mL; IL-1β (0.001 µM): 191.535 pg/mL and 225.78 pg/mL; IL-6 (0.001 µM): 77021 pg/mL and 74486 pg/mL; IL-1β Mean (0.003 µM): 152 pg/mL; IL-6 Mean (0.003 µM): 85496 pg/mL; IL-1β (0.003 µM): 159.132 pg/mL and 145.203 pg/mL; IL-6 (0.003 µM): 89240 pg/mL and 81752 pg/mL; IL-1β Mean (0.01 µM): 108 pg/mL; IL-6 Mean (0.01 µM): 64804 pg/mL; IL-1β (0.01 µM): 100.919 pg/mL and 115.93 pg/mL; IL-6 (0.01 µM): 67940 pg/mL and 61667 pg/mL; IL-1β Mean (0.03 µM): 71 pg/mL; IL-6 Mean (0.03 µM): 46592 pg/mL; IL-1β (0.03 µM): 66.006 pg/mL and 75.789 pg/mL; IL-6 (0.03 µM): 45234 pg/mL and 47949 pg/mL; IL-1β Mean (0.1 µM): 60 pg/mL; IL-6 Mean (0.1 µM): 35534 pg/mL; IL-1β (0.1 µM): 64.116 pg/mL and 55.423 pg/mL; IL-6 (0.1 µM): 34479 pg/mL and 36589 pg/mL; IL-1β Mean (0.3 µM): 49 pg/mL; IL-6 Mean (0.3 µM): 33007 pg/mL; IL-1β (0.3 µM): 48.888 pg/mL and 49.311 pg/mL; IL-6 (0.3 µM): 33007 pg/mL; IL-1β Mean (1 µM): 48 pg/mL; IL-6 Mean (1 µM): 32296 pg/mL; IL-1β (1 µM): 45.029 pg/mL and 51.124 pg/mL; IL-6 (1 µM): 33259 pg/mL and 31333 pg/mL
